The values that follow come from PMC9959676 (Molecules, 2023).

For assay [1], the system named is Bacillus pumilus. Briefly: Antibacterial agar-well diffusion. It counts as cell-based. Particulars: sample 100 mg/5 mL in DMSO; ceftriaxone sodium 20 mg/10 mL; 37 °C, 24 h; 6 mm wells. On the technique in general: A growth-free zone around the sample is the usual read-out of agar diffusion tests.
Assay [2] deals with thoracic aorta segments. Briefly: Inhibition of phenylephrine-induced contraction on isolated aorta rings. Also on record: species or system male Wistar rats. Particulars: compounds 10^−4 M in organ bath, phenylephrine 10^−6 M, n = 5.
Assay [3] in a line: DPPH free radical scavenging assay. Particulars: 1.0 mL sample 0.5 mg/mL + 2 mL DPPH 0.2 mg/mL, 30 min, 517 nm. On the technique in general: The DPPH test is a chemical assay of radical scavenging.
The target in assay [4] is urease (Canavalia ensiformis, UniProt P07374).

As usually defined, the IC50 is the concentration at which inhibition is half-maximal. As to `CCCCC(=O)N(Cc1ccc(-c2ccccc2-c2nn[nH]n2)cc1)C(C(=O)Oc1c([N+](=O)[O-])cc([N+](=O)[O-])cc1[N+](=O)[O-])C(C)C` (centres unmarked), the “Zone of Inhibition Gram +ve Bacteria B.pumilus Mean ± SEM” value in assay [1] was determined as 11.01 ± 0.89 millimeters. Also, in assay [2], the “%ge inh. of Phenylephrine Cont. (±SEM)” value is recorded as 69.6 ± 5.3%. For the same molecule, the “%Age Inhibition ± SEM” value in assay [3] is reported as 92.1 ± 0.82%. Moreover, the IC50 in assay [4] (read-out: IC50 ± SEM, urease, pH 7.0, 37 °C) came to 1560 nM. Besides, the “folds more urease inhibition than standard Thiourea” value in assay [4] (relative to Thiourea IC50) amounted to 3 folds.
